Measurements from ChEMBL document CHEMBL1148394, “Design, synthesis, and in vitro biological evaluation of small molecule inhibitors of estrogen receptor alpha coactivator binding” (J Med Chem, 2004).

Amino acid sequences for entries named in this document (tags omitted). A change or cut given only in a name is not applied to a line headed by its entry.
UniProt Q92731: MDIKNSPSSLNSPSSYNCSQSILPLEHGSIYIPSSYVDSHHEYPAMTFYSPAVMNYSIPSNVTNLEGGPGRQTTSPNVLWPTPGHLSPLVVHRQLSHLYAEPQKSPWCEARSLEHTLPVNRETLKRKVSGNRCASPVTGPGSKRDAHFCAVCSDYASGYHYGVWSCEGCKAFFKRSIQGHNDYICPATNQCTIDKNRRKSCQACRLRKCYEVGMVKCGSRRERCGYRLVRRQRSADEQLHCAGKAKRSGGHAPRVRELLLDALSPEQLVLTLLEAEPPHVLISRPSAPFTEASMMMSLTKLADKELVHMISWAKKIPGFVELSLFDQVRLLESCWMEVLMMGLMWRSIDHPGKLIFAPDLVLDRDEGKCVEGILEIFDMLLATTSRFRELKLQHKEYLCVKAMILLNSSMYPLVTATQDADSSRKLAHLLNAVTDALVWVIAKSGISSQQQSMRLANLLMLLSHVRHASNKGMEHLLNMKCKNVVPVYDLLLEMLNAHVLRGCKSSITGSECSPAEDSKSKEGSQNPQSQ
UniProt P03372: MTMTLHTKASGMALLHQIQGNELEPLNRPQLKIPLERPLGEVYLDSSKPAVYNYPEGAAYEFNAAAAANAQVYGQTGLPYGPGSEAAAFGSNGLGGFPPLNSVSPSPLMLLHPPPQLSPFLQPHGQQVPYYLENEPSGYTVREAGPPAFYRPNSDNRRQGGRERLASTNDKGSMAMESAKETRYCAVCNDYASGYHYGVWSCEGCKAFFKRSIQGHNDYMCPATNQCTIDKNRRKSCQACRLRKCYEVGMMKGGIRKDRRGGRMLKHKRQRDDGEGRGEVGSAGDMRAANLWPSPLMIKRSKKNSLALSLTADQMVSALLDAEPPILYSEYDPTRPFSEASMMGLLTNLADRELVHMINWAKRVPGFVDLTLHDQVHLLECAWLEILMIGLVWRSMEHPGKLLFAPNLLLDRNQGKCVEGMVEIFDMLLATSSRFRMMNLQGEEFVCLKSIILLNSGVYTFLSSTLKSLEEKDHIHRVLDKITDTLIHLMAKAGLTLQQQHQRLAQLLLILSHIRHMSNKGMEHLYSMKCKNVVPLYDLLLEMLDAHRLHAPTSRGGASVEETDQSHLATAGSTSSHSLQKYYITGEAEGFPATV

Target: Estrogen receptor (Homo sapiens, UniProt Q92731+P03372)
Assay: Binding affinity towards estrogen receptor was determined
Assay type: protein assay
In short: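 Competitive radiometric binding to the ERα ligand-binding pocket, displacing [3H]estradiol and reported as relative binding affinity with estradiol set at 100%. Run per published methods. Receptor sources used in the work were lamb uterine cytosol, purified full-length human ERα and ERβ, or His6-tagged ERα LBD (304–554); which of these served here is unspecified.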

Ki: 32 µM
Structure (SMILES): CCCCc1cc(NCCC)nc(NCCC)n1
